Experimental data published in ChEMBL document CHEMBL1144273, “Synthesis and SAR studies of 3-phenoxypropyl piperidine analogues as ORL1 (NOP) receptor agonists” (Bioorg Med Chem Lett, 2005).

Chains of the proteins cited; added tags and fusions are not shown. Lines headed by an entry give the natural chain unless they say otherwise; changes in a name come on top.
UniProt P41146: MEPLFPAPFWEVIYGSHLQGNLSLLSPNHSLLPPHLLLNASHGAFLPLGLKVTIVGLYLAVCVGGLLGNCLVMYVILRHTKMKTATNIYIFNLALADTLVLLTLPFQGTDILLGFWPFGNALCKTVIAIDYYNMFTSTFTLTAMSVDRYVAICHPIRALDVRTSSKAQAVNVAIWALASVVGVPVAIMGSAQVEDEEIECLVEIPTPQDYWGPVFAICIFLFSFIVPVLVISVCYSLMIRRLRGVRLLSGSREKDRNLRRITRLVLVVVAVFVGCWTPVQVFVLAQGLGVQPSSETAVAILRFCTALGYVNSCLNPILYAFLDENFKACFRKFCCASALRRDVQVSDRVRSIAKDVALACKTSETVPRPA

Each molecule was assayed against Nociceptin receptor (Homo sapiens) (UniProt P41146) (assay: Percent NC (nociceptin) response was measured by cellular decreases in forskolin stimulated cAMP in CHO cells stably transfected with hORL1 receptor).

Q: Which Response does the source give for `Cc1ccc(C)c(OC(CCN2CCC(n3c(O)nc4ccccc43)CC2)C(C)C)c1` (stereo not given) here?
A: 89%

Q: For `Cc1ccc([N+](=O)[O-])c(OC(CCN2CCC(n3c(O)nc4ccccc43)CC2)C(C)C)c1` (stereo not given), which Response is on record?
A: 58%

Q: How did the Response turn out when `CC(C)C(CCN1CCC(n2c(O)nc3ccccc32)CC1)Oc1cc(F)ccc1Cl` (stereo not given) was run?
A: 51%

Q: For `CC(C)C(CCN1CCC(n2c(O)nc3ccccc32)CC1)Oc1ccccc1C(F)(F)F` (stereo not given), which Response is on record?
A: 79%

Q: With `Cc1ccc(Cl)c(OC(c2ccccc2)C(O)CN2CCC(n3c(O)nc4ccccc43)CC2)c1` (stereo not given) as the molecule, how does the Response read?
A: 93%

Q: With `Cc1ccc(Cl)c(OC(CCN2CCC(n3c(O)nc4ccccc43)CC2)C(C)C)c1` (stereo not given) as the molecule, how does the Response read?
A: 101%

Q: `Cc1ccc(Cl)c(OC2(C(O)CN3CCC(n4c(O)nc5ccccc54)CC3)CCCCC2)c1` (stereo not given) was tested. Which Response did it give?
A: 82%

Q: For `Cc1ccc(Cl)c(OC(CCN2CCC(n3c(O)nc4ccccc43)CC2)c2ccccc2)c1` (stereo not given), which Response is on record?
A: 81%

Q: `Cc1cc(OC(CCN2CCC(n3c(O)nc4ccccc43)CC2)C(C)C)ccc1F` (stereo not given) was tested. Which Response did it give?
A: 78%

Q: With `COc1ccc(Cl)c(OC(CCN2CCC(n3c(O)nc4ccccc43)CC2)C(C)C)c1` (stereo not given) as the molecule, how does the Response read?
A: 101%

Q: `Cc1cc(F)ccc1OC(CCN1CCC(n2c(O)nc3ccccc32)CC1)C(C)C` (stereo not given) was tested. Which Response did it give?
A: 67%

Q: Which Response does the source give for `CCCC(Oc1cc(C)ccc1Cl)C(O)CN1CCC(n2c(O)nc3ccccc32)CC1` (stereo not given) here?
A: 97%

Q: With `Cc1ccc(Cl)c(OC(CC(C)C)C(O)CN2CCC(n3c(O)nc4ccccc43)CC2)c1` (stereo not given) as the molecule, how does the Response read?
A: 88%

Q: With `Cc1ccc(F)c(OC(CCN2CCC(n3c(O)nc4ccccc43)CC2)C(C)C)c1` (stereo not given) as the molecule, how does the Response read?
A: 70%

Q: With `Cc1ccc(N)cc1OC(CCN1CCC(n2c(O)nc3ccccc32)CC1)C(C)C` (stereo not given) as the molecule, how does the Response read?
A: 104%
